From PMC8085013, “Mixture interactions at mammalian olfactory receptors are dependent on the cellular environment” (Scientific Reports, 2021) come the findings set out here.

As usually defined, the EC50 is the concentration at which the effect is half-maximal.

Like-named read-outs stand apart in the source and are kept apart here.

In experiment [1] the target is T1, mouse Olfr73 (Mus musculus, UniProt Q920P2).
T1 sequence (Q920P2 1-313): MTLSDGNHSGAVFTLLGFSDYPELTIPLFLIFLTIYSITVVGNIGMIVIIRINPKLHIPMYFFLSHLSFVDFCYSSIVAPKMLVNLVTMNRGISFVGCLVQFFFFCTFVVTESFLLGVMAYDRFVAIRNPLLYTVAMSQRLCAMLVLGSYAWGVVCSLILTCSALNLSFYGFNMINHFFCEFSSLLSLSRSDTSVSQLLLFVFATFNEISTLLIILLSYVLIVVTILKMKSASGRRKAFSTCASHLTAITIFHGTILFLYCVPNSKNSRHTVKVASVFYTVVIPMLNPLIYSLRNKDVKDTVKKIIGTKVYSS
Put plainly: GCaMP3 calcium imaging of mouse OSNs ectopically expressing Olfr73 (rAAV2/5), 5-s odorant pulse. It is filed as cell-based. To be noted: Ca2+ (GCaMP3).

The target of experiment [2] is T1, mouse Olfr73. The class given is cell-based. Particulars: HEK293 short odor Ca2+, Gq11; response normalized to 5 mM eugenol.

With isoeugenol, the EC50 on mouse Olfr73 [1] came to 117 ± 45 µM; at mouse Olfr73 [2] it was 23 ± 8 µM.
